Test system: 253J B-V human bladder carcinoma
Details: paclitaxel alone 8 mg/kg IP days 14, 20 and 27

## CC(=O)O[C@H]1C(=O)[C@@]2(C)[C@H]([C@H](OC(=O)c3ccccc3)[C@]3(O)C[C@H](OC(=O)[C@H](O)[C@@H](NC(=O)c4ccccc4)c4ccccc4)C(C)=C1C3(C)C)[C@]1(OC(C)=O)CO[C@@H]1C[C@@H]2O [paclitaxel, reference compound]
  bladder tumor mass: did not significantly reduce the bladder tumor mass

Reference: patent US20060293323A1, “Therapeutic Combinations of erb B Kinase Inhibitors and Antineoplastic Therapies” (priority 2002, published 2006)
